The record followed here is ChEMBL document CHEMBL2062483, “Design of Bcl-2 and Bcl-xL inhibitors with subnanomolar binding affinities based upon a new scaffold” (J Med Chem, 2012).

The chains behind the UniProt entries cited, without tags or fusion partners.
UniProt Q07820, whole entry: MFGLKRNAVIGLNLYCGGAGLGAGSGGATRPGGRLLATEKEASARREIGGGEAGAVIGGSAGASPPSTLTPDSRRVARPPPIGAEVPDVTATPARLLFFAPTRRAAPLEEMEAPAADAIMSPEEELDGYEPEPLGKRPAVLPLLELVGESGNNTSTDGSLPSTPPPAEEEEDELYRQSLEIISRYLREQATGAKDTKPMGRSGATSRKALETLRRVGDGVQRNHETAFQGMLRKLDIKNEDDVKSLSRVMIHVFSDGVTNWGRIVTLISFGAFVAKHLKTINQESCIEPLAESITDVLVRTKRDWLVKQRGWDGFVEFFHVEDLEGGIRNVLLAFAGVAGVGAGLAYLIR

pIC50: −log10 of the molar value.

The assay deals with Induced myeloid leukemia cell differentiation protein Mcl-1 (Homo sapiens, UniProt Q07820). In words: Binding affinity to N-terminus 8X His-tagged human Mcl1 expressed in Escherichia coli BL21 (DE3) cells after 2 hrs by fluorescence polarization assay. The method, boiled down:
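Competitive FP binding: serially diluted inhibitor in DMSO added to preincubated protein/fluorescent probe complex, 2 h at room temperature with gentle shaking. Final protein/probe: Bcl-2 1.5 nM/1 nM; Bcl-xL 10 nM/2 nM; Mcl-1 20 nM/2 nM. […] IC50 from nonlinear regression; Ki calculated from IC50, probe Kd and protein/probe concentrations.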

With `CN(C)CC[C@H](CSc1ccccc1)Nc1ccc(S(=O)(=O)NC(=O)c2ccc(N3CCN(Cc4ccccc4-c4ccc(Cl)cc4)CC3)cc2)cc1[N+](=O)[O-]` [ABT 737], the pIC50 is < 6.00.
